From PubChem BioAssay (Tox21)
Several values for one entry are separate records, joined by “and”; a condition that tells them apart may be missing. Identical values can stand only once. The entries are a selection whose mix differs from that of the whole data set. Records with an inconclusive call do not appear. Activity calls are given as the source filed them. Unless noted, calls come from the whole dose curve.

The chains behind the UniProt entries cited, without tags or fusion partners.
UniProt P30968, whole entry: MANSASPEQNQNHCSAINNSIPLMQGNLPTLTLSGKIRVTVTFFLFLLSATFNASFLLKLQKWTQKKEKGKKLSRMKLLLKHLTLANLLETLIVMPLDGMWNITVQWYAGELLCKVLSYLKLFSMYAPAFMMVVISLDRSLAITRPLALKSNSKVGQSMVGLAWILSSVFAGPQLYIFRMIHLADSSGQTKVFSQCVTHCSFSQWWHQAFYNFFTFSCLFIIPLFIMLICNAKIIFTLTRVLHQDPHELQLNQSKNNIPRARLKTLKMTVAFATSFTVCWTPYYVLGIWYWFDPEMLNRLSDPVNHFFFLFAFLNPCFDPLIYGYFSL
UniProt Q969F8, whole entry: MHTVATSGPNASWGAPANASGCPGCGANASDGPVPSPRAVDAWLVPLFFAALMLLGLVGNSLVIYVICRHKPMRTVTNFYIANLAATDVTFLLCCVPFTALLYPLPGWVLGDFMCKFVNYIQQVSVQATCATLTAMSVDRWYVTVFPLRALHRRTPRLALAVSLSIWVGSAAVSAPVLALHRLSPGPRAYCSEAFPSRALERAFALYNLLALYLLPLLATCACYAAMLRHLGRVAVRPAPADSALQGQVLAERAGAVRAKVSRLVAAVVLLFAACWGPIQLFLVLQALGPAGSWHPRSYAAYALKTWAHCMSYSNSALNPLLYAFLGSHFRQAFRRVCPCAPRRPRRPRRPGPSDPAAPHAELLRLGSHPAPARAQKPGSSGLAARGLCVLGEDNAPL
UniProt P28223, whole entry: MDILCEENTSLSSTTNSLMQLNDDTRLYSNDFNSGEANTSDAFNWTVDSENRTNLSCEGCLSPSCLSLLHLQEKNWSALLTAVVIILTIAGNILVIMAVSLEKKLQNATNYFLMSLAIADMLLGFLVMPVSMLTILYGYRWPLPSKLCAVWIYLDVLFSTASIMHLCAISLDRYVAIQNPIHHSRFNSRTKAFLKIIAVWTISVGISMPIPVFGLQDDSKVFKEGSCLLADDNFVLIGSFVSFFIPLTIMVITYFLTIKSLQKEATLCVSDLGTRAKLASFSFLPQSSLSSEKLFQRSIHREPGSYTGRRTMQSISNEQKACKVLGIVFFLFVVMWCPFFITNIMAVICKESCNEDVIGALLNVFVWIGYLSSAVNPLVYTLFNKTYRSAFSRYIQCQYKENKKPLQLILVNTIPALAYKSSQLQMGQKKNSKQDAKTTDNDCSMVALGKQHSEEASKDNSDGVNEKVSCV
UniProt P11229, whole entry: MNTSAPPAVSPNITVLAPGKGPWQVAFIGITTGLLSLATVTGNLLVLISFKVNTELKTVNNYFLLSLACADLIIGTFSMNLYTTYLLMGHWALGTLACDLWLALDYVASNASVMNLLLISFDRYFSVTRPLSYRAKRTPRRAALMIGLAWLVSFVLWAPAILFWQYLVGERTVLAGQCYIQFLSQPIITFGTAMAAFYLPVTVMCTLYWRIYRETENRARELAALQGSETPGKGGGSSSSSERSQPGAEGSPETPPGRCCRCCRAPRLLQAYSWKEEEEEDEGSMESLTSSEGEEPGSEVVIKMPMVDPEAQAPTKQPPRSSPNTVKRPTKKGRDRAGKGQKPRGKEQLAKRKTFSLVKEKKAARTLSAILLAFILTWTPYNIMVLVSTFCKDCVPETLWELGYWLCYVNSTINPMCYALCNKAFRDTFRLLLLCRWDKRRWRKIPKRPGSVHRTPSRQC
UniProt P07550, whole entry: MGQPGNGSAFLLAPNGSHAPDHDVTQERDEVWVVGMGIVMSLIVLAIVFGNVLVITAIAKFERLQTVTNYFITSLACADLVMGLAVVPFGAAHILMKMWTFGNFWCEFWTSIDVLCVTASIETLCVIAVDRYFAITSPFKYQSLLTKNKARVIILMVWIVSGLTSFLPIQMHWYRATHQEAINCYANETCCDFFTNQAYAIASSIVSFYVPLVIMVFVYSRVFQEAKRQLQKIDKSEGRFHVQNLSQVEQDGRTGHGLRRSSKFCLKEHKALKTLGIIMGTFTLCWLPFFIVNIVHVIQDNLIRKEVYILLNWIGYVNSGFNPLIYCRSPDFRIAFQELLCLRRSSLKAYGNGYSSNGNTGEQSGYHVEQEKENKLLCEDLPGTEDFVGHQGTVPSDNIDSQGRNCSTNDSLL
UniProt P14416, whole entry: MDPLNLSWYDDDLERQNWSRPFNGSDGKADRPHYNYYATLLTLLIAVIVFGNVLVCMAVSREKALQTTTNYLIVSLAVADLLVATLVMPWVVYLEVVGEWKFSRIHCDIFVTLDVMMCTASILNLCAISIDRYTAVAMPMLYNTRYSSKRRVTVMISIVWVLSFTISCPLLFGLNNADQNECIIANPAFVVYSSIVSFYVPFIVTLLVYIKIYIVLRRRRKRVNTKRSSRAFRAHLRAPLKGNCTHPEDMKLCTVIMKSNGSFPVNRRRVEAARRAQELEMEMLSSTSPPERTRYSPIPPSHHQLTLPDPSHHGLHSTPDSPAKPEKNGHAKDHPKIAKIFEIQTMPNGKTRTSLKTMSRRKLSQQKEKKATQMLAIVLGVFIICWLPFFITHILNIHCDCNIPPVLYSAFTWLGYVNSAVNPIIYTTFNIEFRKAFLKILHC

What was measured:
[1] = Nuclear factor erythroid 2-related factor 2/antioxidant responsive element (Nrf2/ARE) small molecule agonists: qHTS cell viability counter screen in human keratinocytes (AID 1919968; active = well fitted curve in the direction sought with a large enough effect in the repeat runs; an effect the other way counts as inactive or inconclusive; note: nearly all actives have a fitted effect of over 55% in size); details: KeratinoSens HaCaT ARE cells viability, CellTiter-Fluor, 24 h; at 92.4 µM (top of the series) unless noted
Method in brief: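 In human HaCaT keratinocytes stably expressing an ARE-driven luciferase, compound exposure lasted 23 h at 37 C under 5% CO2. Viable cells are quantified with a protease-based fluorogenic reagent (CellTiter-Fluor) read 1 h after addition.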

[2] = Nuclear factor erythroid 2-related factor 2/antioxidant responsive element (Nrf2/ARE) small molecule agonists: luciferase reporter gene qHTS assay in human keratinocytes (AID 1919969); details: KeratinoSens HaCaT ARE-luciferase, luminescence, 24 h; at 92.4 µM (top of the series) unless noted; note: nearly all actives have a fitted effect of over 35% in size
Excerpt: National Center for Advancing Translational Sciences [NCATS]
Division of Preclinical Innovation [DPI]
U.S. Environmental Protection Agency [EPA]
National Institutes of Environmental Health Sciences [NIEHS]
National Toxicology Program [NTP]
U.S. Food and Drug Administration [FDA]
Oxidative stress has been implicated in the pathogenesis of a variety of diseases ranging from cancer to neurodegeneration. The antioxidant response element (ARE) signaling pathway plays an important role in the amelioration of oxidative stress. The KeratinoSens (Givaudan, Switzerland) is an in vitro test method which quantifies luciferase induction as a measure of activation of Keap1-Nrf2-antioxidationt/electrophile response element (ARE) dependant pathway in HaCaT human keratinocytes stably transfected with a selectable plasmid. The KeratinoSens assay is a cell-based assay with a reporter cell line to detect potential skin sensitizers by their ability to induce the Nrf2/ARE-response. The activation of the report gene under culture conditions can be detected by ONE-Glo Luciferase Assay System (Promega, Madison, WI). This cell line has been used to screen the Tox21 10K compound library to identify agonists that induce oxidative stress. The cytotoxicity of the Tox21 compound library against the KS-ARE cell line was tested in parallel by measuring the cell viability using CellTiter- Fluor assay system (Promega, Madison, WI) in the same wells.
HaCaT derived cell line KeratinoSens were dispensed at 1,500 cells/5uL/well in 1536-well white wall/solid bottom plates using a Multidrop Combi (ThermoFisher Scientific, Waltham, MA) dispenser. After the assay plates were incubated at 37 C/5% CO2 for 5 h, 23 nL of compounds dissolved in DMSO, positive controls or DMSO only was transferred to the assay plate by a pintool workstation (Kalypsys, San Diego, CA). The plates were incubated at 37 C/5% CO2 for 23 h, followed by addition of 1uL/well of CellTiter-Fluor reagent into the assay plates using a Flying Reagent Dispenser (Aurora Discovery, San Diego, CA) for cell viability readout that measures cytotoxicity. After 1 h incubation at 37 C/5% CO2 the fluorescence intensity was measured using a ViewLux (PerkinElmer, Shelton, CT) plate reader. Then 4uL/well of One-Glo were added using a Flying Reagent Dispenser. After the plates were incubated at room temperature for 30 min, the luminescence intensity in the assay plates was measured using ViewLux plate reader.

[3] = target: Gonadotropin-releasing hormone receptor (Homo sapiens) (UniProt P30968); assay: Human gonadotropin-releasing hormone receptor (GnRHR) small molecule agonists, calcium flux assay in GnRHR-HEK293 cells (AID 1920063); details: calcium flux fluorescence, agonist mode, stronger effect = higher value; at 57.6 µM (top of the series) unless noted; note: nearly all actives have a fitted effect of over 35% in size
Method in brief: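 Intracellular calcium rise is the read-out: engineered human GnRHR HEK293 cells, dye-loaded, are exposed to DMSO-dissolved compounds and fluorescence at Ex/Em 480/540 is tracked for 3 min.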

[4] = target: KiSS-1 receptor (Homo sapiens) (UniProt Q969F8); assay: Human kisspeptin (KISS1R) small molecule agonists, calcium flux assay in KISS1R-HEK293 cells (AID 1920064; active = well fitted curve in the direction sought with a large enough effect in the repeat runs; an effect the other way counts as inactive or inconclusive); details: KISS1R-HEK293, calcium flux fluorescence, agonist; at 76.8 µM (top of the series) unless noted
Method in brief: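 Concentration-response testing used 15 concentrations in triplicate on human KISS1R-expressing HEK293 cells. Calcium-dependent fluorescence (Ex/Em 480/540) was followed kinetically for 3 min after compound transfer.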

[5] = G protein-coupled receptor (GPCR) small molecule agonists, calcium flux assay: HEK293 wild type cell line counter screen (AID 1920065); details: HEK293 WT calcium flux, fluorescence, agonist mode; at 57.6 µM (top of the series) unless noted
Method in brief: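 Fluorescence intensity signals activation. After overnight (18 h) culture and a 1 h calcium dye load at 37 C, compounds are added by pin tool and the plate read at 480/540 nm for 3 min in 1 s steps.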

[6] = p53 small molecule agonists, cell-based qHTS assay with human liver microsomes (AID 1963577); details: HCT-116 p53RE-bla with human liver microsomes, ratio, 16 h; at 66 µM (top of the series) unless noted
Method in brief: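 p53RE-bla reporter cells were pre-incubated 5 h at 37 C, then treated with compounds plus human liver microsomes (0.5 mg/mL final) and NADPH (0.5 mg/mL final) for 16 h at 37 C. Beta-lactamase activity was read by LiveBLAzer fluorescence after 2 h at room temperature.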

[7] = p53 small molecule agonists, cell-based qHTS assay with rat liver microsomes (AID 1963578); details: HCT-116 p53RE-bla, beta-lactamase ratio, 16 h; at 66 µM (top of the series) unless noted
Method in brief: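 p53RE-bla cells were exposed to compounds together with rat liver microsomes (0.5 mg/mL final) and NADPH (0.5 mg/mL final) for 16 h at 37 C, then read by LiveBLAzer beta-lactamase fluorescence after 2 h at room temperature.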

[8] = p53 small molecule agonists, cell-based qHTS assay with human liver microsomes: qHTS cell viability counter screen (AID 1963579); details: p53RE-bla HCT-116 viability, ATP luminescence, 16 h, HLM; at 66 µM (top of the series) unless noted; note: nearly all actives have a fitted effect of over 45% in size
Method in brief: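 p53RE-bla cells (4,000/well) were pre-incubated 5 h at 37 C, then given compounds in DMSO plus human liver microsomes (0.5 mg/mL final) and NADPH (0.5 mg/mL final) for 16 h at 37 C. Viability was read by CellTiter-Glo luminescence.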

[9] = p53 small molecule agonists, cell-based qHTS assay with rat liver microsomes: qHTS cell viability counter screen (AID 1963580); details: p53RE-bla HCT-116 + rat microsomes, ATP viability, 16 h; at 66 µM (top of the series) unless noted; note: nearly all actives have a fitted effect of over 45% in size
Method in brief: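 Counter screen for cytotoxicity under metabolic activation: rat liver microsomes and NADPH, 0.5 mg/mL final each, added with compounds to p53RE-bla HCT-116 cells; 16 h at 37 C, then ATP luminescence read.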

[10] = p53 small molecule agonists, cell-based qHTS assay: qHTS cell viability counter screen (AID 1963581); details: p53RE-bla HCT-116 viability, ATP luminescence, 16 h; at 66 µM (top of the series) unless noted; note: nearly all actives have a fitted effect of over 45% in size
Method in brief: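 Luminescence from CellTiter-Glo, reflecting ATP content, serves as the cytotoxicity measure; it is taken after the 2 h reporter substrate step in HCT-116 p53RE-bla cells dosed for 16 h at 37 C.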

[11] = p53 small molecule agonists, cell-based qHTS assay (AID 1963582; active = well fitted activation curve with a large enough effect in the signal ratio in the repeat runs, not every such curve was filed as active; the % refers to the signal ratio); details: HCT-116 p53RE-bla reporter, beta-lactamase FRET ratio, 16 h; at 66 µM (top of the series) unless noted
Method in brief: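 After plating, p53RE-bla cells sat 5 h in the incubator; compounds or DMSO vehicle were pinned in; a 16 h incubation at 37 C followed; FRET substrate was added and, 2 h later at RT, fluorescence was measured.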

[12] = target: 5-hydroxytryptamine receptor 2A (Homo sapiens) (UniProt P28223); assay: 5-hydroxytryptamine receptor 2A (HTR2A) small molecule antagonists, cell-based qHTS assay (AID 1963586); details: HTR2A-CHO cells, DOI-induced calcium flux, fluorescence; at 61.5 µM (top of the series) unless noted; note: nearly all actives have a fitted effect of over 45% in size
Method in brief: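 CHO cells stably expressing human HTR2A were plated for 18 h at 37 C, then loaded with calcium dye for 1 h. Compounds were preincubated 5 min at room temperature before DOI (4 nM solution) was added. Kinetic fluorescence was read for 3 min.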

[13] = target: 5-hydroxytryptamine receptor 2A (Homo sapiens) (UniProt P28223); assay: 5-hydroxytryptamine receptor 2A (HTR2A) small molecule agonists, cell-based qHTS assay (AID 1963587); details: HTR2A-CHO cells, calcium flux fluorescence, agonist mode; at 76.8 µM (top of the series) unless noted; note: nearly all actives have a fitted effect of over 30% in size
Method in brief: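 HTR2A-CHO cells, plated 18 h at 37 C/5% CO2, dye-loaded 1 h at 37 C; compounds in DMSO added by pin tool (agonist mode). Intracellular calcium flux read as kinetic fluorescence on FDSS over 2 min at 1 s intervals.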

[14] = target: Muscarinic acetylcholine receptor M1 (Homo sapiens) (UniProt P11229); assay: Cholinergic receptor muscarinic 1 (CHRM1) small molecule antagonists, cell-based qHTS assay (AID 1963588); details: CHRM1-CHO antagonist mode, calcium flux fluorescence; at 61.5 µM (top of the series) unless noted; note: nearly all actives have a fitted effect of over 40% in size
Method in brief: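 Compounds were tested at 15 concentrations in three independent runs. Dye-loaded CHRM1-CHO cells were exposed 5 min at room temperature before stimulation by acetylcholine added at 50nM. Intracellular calcium was read kinetically on FDSS for 3 min.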

[15] = target: Muscarinic acetylcholine receptor M1 (Homo sapiens) (UniProt P11229); assay: Cholinergic receptor muscarinic 1 (CHRM1) small molecule agonists, cell-based qHTS assay (AID 1963589); details: CHRM1-CHO cells, agonist mode, calcium flux fluorescence; at 76.8 µM (top of the series) unless noted; note: nearly all actives have a fitted effect of over 35% in size
Method in brief: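 Fluorescent calcium dye reports M1 activation in stably transfected CHO cells. Compounds, 15 concentrations, added after 1 h dye loading at 37 C; kinetic reading at 1 sec intervals.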

[16] = cAMP Responsive Elements (CRE) small molecule agonists, cell-based qHTS assay (AID 1963590); details: CRE-bla HEK293T, beta-lactamase FRET ratio, 3 h; at 92.4 µM (top of the series) unless noted
Method in brief: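 Compound exposure lasted 3 h at 37 C/5% CO2 in CRE-bla HEK 293T cells grown in assay medium with 10% dialyzed FBS and 25 mM HEPES. Reporter signal came from LiveBLAzer B/G FRET substrate, 2 h, room temperature.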

[17] = cAMP Responsive Elements (CRE) small molecule antagonists, cell-based qHTS assay (AID 1963591; active = well fitted inhibition curve with a large enough effect in the signal ratio in the repeat runs, not every such curve was filed as active; the % refers to the signal ratio); details: CRE-bla HEK293T, beta-lactamase FRET ratio; at 92.4 µM (top of the series) unless noted
Method in brief: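 Stimulation used NKH477 at a final 0.25 uM for 3 h in compound-treated CRE-bla HEK293T cells, seeded 18 h beforehand. Reporter activity was measured with LiveBLAzer B/G FRET substrate after 2 h at room temperature.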

[18] = target: Beta-2 adrenergic receptor (Homo sapiens) (UniProt P07550); assay: Adrenergic beta2 receptor (ADRB2) small molecule antagonists, cell-based qHTS assay (AID 1963592); details: CHO-ADRB2 cells, isoproterenol-stimulated cAMP HTRF ratio, 0.5 h; at 92.4 µM (top of the series) unless noted; note: nearly all actives have a fitted effect of over 50% in size
Method in brief: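 Assay format: CHO-ADRB2 cells, 18-20hr seeding at 37C/5% CO2, then compound plus 1nM isoproterenol agonist mix for 0.5hr RT. Homogeneous time-resolved fluorescence cAMP detection after 1hr, expressed as 665/615 nm ratio.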

[19] = target: D(2) dopamine receptor (Homo sapiens) (UniProt P14416); assay: Dopamine D2 receptor (DRD2) small molecule agonists, cell-based qHTS assay (AID 1963594); details: HEK293-DRD2 cAMP HTRF, agonist mode, 30 min; at 92.4 µM (top of the series) unless noted; note: nearly all actives have a fitted effect of over 35% in size
Method in brief: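 HEK293 cells stably expressing DRD2 were cultured 24 h at 37 C, then given Ro20-1724 (0.1 mM final) and compounds for 10 min at room temperature. NKH477 (200nM) was then added for 30 min. cAMP was read by HTRF.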

[20] = target: D(2) dopamine receptor (Homo sapiens) (UniProt P14416); assay: Dopamine D2 receptor (DRD2) small molecule antagonists, cell-based qHTS assay (AID 1963595; active = well fitted inhibition curve with a large enough effect in the signal ratio in the repeat runs, with a control signal flat; the % refers to the signal ratio); details: HEK293-DRD2 cAMP HTRF antagonist mode; at 92.4 µM (top of the series) unless noted
Method in brief: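 HTRF cAMP read-out at 665 and 620 nm emission (340 nm excitation). Antagonist mode: compounds were tested against 12 nM quinpirole in DRD2-HEK293 cells, with 200 nM NKH477 raising cAMP and 0.1 mM Ro20-1724 blocking its breakdown.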
% is set by controls: 0 for no effect and ±100 for the full control effect.

ClCCNCCCl
inactive: activity change, negative = cytotoxicity [1] -3.41% | activity, positive = activation [2] -0.114% | activity change [3] -0.162% | activation [4] 1.11% | activation [5] -0.35% | activation [6] 0.151% | activation [7] 0.588% | activity change, negative = cytotoxicity [8] 1.9% | activity change, negative = cytotoxicity [9] -7.96% | activity change, negative = cytotoxicity [10] -6.44% | activation [11] 3.43% | activity, negative = inhibition [12] -2.81% | activation [13] 0.221% | activity, negative = inhibition [14] 23.7% | activation [15] 0.043% | activation [16] 0.0083% | activity change, negative = inhibition [17] -4.95% | activity change, negative = inhibition [18] 0.305% | activation [19] 0.155% | activity change, negative = inhibition [20] 0.378%

O=[N+]([O-])c1ccccc1[N+](=O)[O-]
inactive: activity change, negative = cytotoxicity [1] 0.42% and -1.19% | activity change [3] 0.249% and -0.0953% | activation [4] -0.746% and 0.435% | activation [5] 0.174% and 0.485% | activation [6] -6.23% and -1.12% | activation [7] -3.02% and 0.0779% | activity change, negative = cytotoxicity [8] 1.42% and -2.97% | activity change, negative = cytotoxicity [9] -5.72% and -1.43% | activity change, negative = cytotoxicity [10] -4.66% and -1.13% | activation [11] -2.57% | activity, negative = inhibition [12] -1.63% and -10.7% | activation [13] 0.994% and 7.57% | activity, negative = inhibition [14] 45% and -7.01% | activation [15] -0.207% and -0.757% | activity change, negative = inhibition [18] -0.159% and 13.3% | activation [19] -0.179% and -6.6% | activity change, negative = inhibition [20] -9.09% and -4.37%
